Literature values in patent publication US8802639B2, “RNA interference modulators of hedgehog signaling and uses thereof” (Curis, Inc., priority 2004, dated 2014).

Tested on: embryonic prostate
Conditions: W. Bushman, unpublished result; cited from earlier work

SMILES: CC1=C2C[C@H]3[C@@H](CC=C4C[C@@H](O)CC[C@@]43C)[C@@H]2CC[C@]12O[C@@H]1C[C@H](C)CN[C@H]1[C@H]2C [cyclopamine]
- growth and branching of embryonic prostate: inhibits growth and branching
